Binding of CDR-mutated scFvs to a peptide of the spike HR2 region

Data: MIT Lincoln Laboratory AlphaSeq set, Engelhart et al. 2022, doi:10.1038/s41597-022-01779-4, as distributed in FLAb.

Antigen: PDVDLGDISGINAS, a 14-residue peptide of the SARS-CoV-2 spike HR2 region.

Parent scFv Ab-95: VH joined to VL by the linker GGGGSGGGGSGGGGS. Changes lie in the light chain CDRs alone.
VH: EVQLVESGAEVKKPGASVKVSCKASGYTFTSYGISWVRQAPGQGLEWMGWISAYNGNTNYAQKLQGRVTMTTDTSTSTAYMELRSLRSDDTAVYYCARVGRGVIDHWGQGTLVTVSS
VL: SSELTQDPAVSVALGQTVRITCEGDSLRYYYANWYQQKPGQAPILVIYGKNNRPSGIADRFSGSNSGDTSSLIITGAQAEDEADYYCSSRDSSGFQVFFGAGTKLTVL

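The parent was found by panning a naive human phage display library on the peptide. The library (AAYL52) carries one to three amino acid substitutions per variant, with no insertions or deletions. In AlphaSeq, yeast of one mating type display the scFv and yeast of the other type display the target. Binding brings cells together so that they mate, and sequencing counts the barcode pairs among the diploids. Each replicate has its own calibration line, from reference interactions of the BCL2 family. Each pool was mated in three replicate cultures.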

The parent's light chain CDRs are EGDSLRYYYAN, GKNNRPS, SSRDSSGFQVF; each variant's own CDRs replace them letter for letter.
Scale: log10 of Kd in nM, estimated from mating counts; low values are strong binders.
"n.d." means that the variant was in the library but no mating with the target was seen in that replicate; the authors take this as a sign of poor binding, and no number exists.

| # | CDR-L1 | CDR-L2 | CDR-L3 | replicates, log10 nM |
|---|---|---|---|---|
| 1 | EGDSLAYYYAN | MKNCRPS | SSRDSSGFQVF | 3.43 4.12 n.d. |
| 2 | EGDSLRYAYAM | GKNNRPS | SSRDESGFQVF | 2.17 2.09 1.49 |
| 3 | EGDSLRYYYAN | GKDNRPS | SPRDSSGMQVF | 3.11 2.63 2.49 |
| 4 | NGDSERYYYAN | GKCNRPS | SSRDSSGFQVF | 3.78 5.80 n.d. |
| 5 | EGDSLLYYYIN | GKNNRPS | SSRDSSGFQPF | 4.26 4.23 3.54 |
| 6 | EGDSYRYYYAN | GKNNRPS | SSRDSSGFQSW | n.d. n.d. n.d. |
| 7 | YGDSNRYYYAN | GKNNRPS | SSRDSSGPQVF | 2.61 2.87 4.22 |
| 8 | EGSSLRYMYAN | GKANRPS | SSRDSSGFQVF | 2.16 2.10 1.94 |
| 9 | EGDSLRQEYAN | GTNNRPS | SSRDSSGFQVF | 1.26 1.17 0.70 |
| 10 | EGSSLRYYCAN | GKNNRPS | SSRDSHGFQVF | 2.70 2.82 2.57 |
| 11 | EGDSLRYYNAN | GKNNRPS | SSRDSSGFNVF | 1.22 1.21 0.54 |
| 12 | EGDSLRYYHAN | GKNNRPS | SSRDSIGSQVF | 2.40 2.25 2.55 |
| 13 | DGDSLRCYYAN | GKNNRPS | SSRDSSGFQVL | 4.86 4.08 4.71 |
| 14 | EGDQLRYYYAN | GKNNRPS | VSRDSSGFQTF | 3.57 2.83 3.55 |
| 15 | EGDSLRYYYAN | GKNNRAS | SSRDSSGLQVF | 5.00 4.94 n.d. |
| 16 | EGDMLRYYYAN | QKNNRPS | SSRDSSGFIVF | n.d. n.d. n.d. |
| 17 | ESDSLRYYYAN | QKNNRPS | SSRDSSGFQCF | n.d. n.d. n.d. |
| 18 | KGDSLRYYYAN | GKNNRPS | SGRDLSGFQVF | 2.17 2.25 3.09 |
| 19 | EGDSLRYYYRN | GKNNRPM | HSRDSSGFQVF | n.d. n.d. n.d. |
| 20 | ECDSLRYYYAN | AKNNRPS | SSRDSSGFQVH | 3.46 4.16 n.d. |
| 21 | EGDSRRYYYAN | GKNNRPS | SSTHSSGFQVF | n.d. 4.46 4.59 |
| 22 | EGDSLRYYYAN | RKNNRPF | SSRDSSGTQVF | n.d. n.d. n.d. |
| 23 | EGDSLRYYYAN | PKINRPS | SSRDSSGFQVH | 4.02 n.d. 3.04 |
| 24 | EGDSLRYYYAN | GKNNRPS | SSRDSSPFHVF | 2.80 2.90 2.10 |
| 25 | EGDSGRYYYAN | GKNKRPS | SSRDSRGFQVF | 4.02 4.53 n.d. |

Continued, with the values leading:

| # | replicates, log10 nM | CDR-L1 | CDR-L2 | CDR-L3 |
|---|---|---|---|---|
| 26 | 1.50 0.85 0.82 | EGDSLRYQYAN | GKNNRPG | SSRDSSRFQVF |
| 27 | 3.19 2.49 2.34 | EGDSLRYYYAN | GKNNRPA | SSRFMSGFQVF |
| 28 | n.d. n.d. n.d. | EGDSLYNYYAN | GKNNRPS | SSRDSSWFQVF |
| 29 | 3.34 4.42 3.09 | LGDSLSYYYAN | DKNNRPS | SSRDSSGFQVF |
| 30 | 2.51 2.29 2.33 | EGDSLRYYYAN | GKNNRAT | SSRDSRGFQVF |
| 31 | 2.17 2.23 2.21 | EGDSLRYYYAN | GKNNRPS | SSVDSWFFQVF |
| 32 | 1.98 1.87 1.65 | EGDSLRYYYAN | GENNRPD | SSRDSSGFQVF |
| 33 | 5.06 4.62 n.d. | EGDSLRYYYAN | GKNNRPS | SPKDSSPFQVF |
| 34 | 2.79 3.01 2.62 | RGDSLRQYYAN | GKNNRPS | SDRDSSGFQVF |
| 35 | 4.70 n.d. 4.28 | EGISLRYYVAN | GKNNRPS | SSRDSSVFQVF |
| 36 | 2.97 3.58 3.35 | EGKSLRYYYAN | GKNNRPS | SSRDSSGFQVV |
| 37 | n.d. n.d. n.d. | EEDSLRYYYAN | GKNNRPS | SSRISSGFQVF |
| 38 | 4.44 3.98 n.d. | EGDSLRYYYDN | GKNNRPS | SSSDSSLFQVF |
| 39 | n.d. 4.53 3.97 | EPDSLRYCYAN | GKINRPS | SSRDSSGFQVF |
| 40 | 3.79 n.d. n.d. | EGDSLRYYHAE | GKNNRDS | SSRDSSGFQVF |
| 41 | 3.22 3.53 2.57 | EGDSLRYYYAN | GKNNRPS | SSRDCSLFMVF |
| 42 | n.d. n.d. n.d. | EGDSLRYYYDN | DKNNRPS | LSRDSSGFQVF |
| 43 | 2.82 2.81 2.04 | EGDSLRYYYAN | GKNNRPE | SSRDFSGFRVF |
| 44 | 3.75 4.61 4.30 | EGDSLRYKYAN | GKVNRPS | SSRRSSGFQVF |
| 45 | 2.39 2.38 2.50 | EGPSLRYYYAN | GKGNRPS | WSRDSSGFQVF |
| 46 | n.d. n.d. n.d. | EGDSLRYYYAE | GKDVRPS | SSRDSSGFQVF |
| 47 | 1.98 2.07 1.58 | CGDSLRYYEAN | GKNRRPS | SSRDSSGFQVF |
| 48 | 1.46 1.11 1.26 | EGDSLRYYDAN | GKNNRPS | QSRHSSGFQVF |
| 49 | n.d. n.d. n.d. | EGKSLRYYYAW | GKNNRPS | SSRDSSFFQVF |
| 50 | 3.79 n.d. n.d. | EGDSLRAYYAM | GKNNRPW | SSRDSSGFQVF |
| 51 | 4.38 n.d. n.d. | EGDSLRNYYAN | GKNNRPS | SSRDSSPYQVF |

A selection of 4 entries from above:

| CDR-L1 | CDR-L2 | CDR-L3 | replicates, log10 nM |
|---|---|---|---|
| EEDSLRYYYAN | GKNNRPS | SSRISSGFQVF | n.d. n.d. n.d. |
| EGDSLRYYHAN | GKNNRPS | SSRDSIGSQVF | 2.40 2.25 2.55 |
| EGDSLRNYYAN | GKNNRPS | SSRDSSPYQVF | 4.38 n.d. n.d. |
| EGDSLYNYYAN | GKNNRPS | SSRDSSWFQVF | n.d. n.d. n.d. |

Parent in this assay: reference entry 2.31, copy in this library 2.25.
Nonspecific signal, from three strains lacking the peptide, appeared in 28% of pairings of library AAYL52, centred on 3.91 (5% of these signals below 2.90); values are not corrected for it.